Among the data in ChEMBL document CHEMBL1148370, “Studies toward the discovery of the next generation of antidepressants. 3. Dual 5-HT1A and serotonin transporter affinity within a class of N-aryloxyethylindolylalkylamines” (J Med Chem, 2004) are EC50 values, retold here.

Amino acid sequences for entries named in this document (tags omitted).
UniProt P08908, whole entry: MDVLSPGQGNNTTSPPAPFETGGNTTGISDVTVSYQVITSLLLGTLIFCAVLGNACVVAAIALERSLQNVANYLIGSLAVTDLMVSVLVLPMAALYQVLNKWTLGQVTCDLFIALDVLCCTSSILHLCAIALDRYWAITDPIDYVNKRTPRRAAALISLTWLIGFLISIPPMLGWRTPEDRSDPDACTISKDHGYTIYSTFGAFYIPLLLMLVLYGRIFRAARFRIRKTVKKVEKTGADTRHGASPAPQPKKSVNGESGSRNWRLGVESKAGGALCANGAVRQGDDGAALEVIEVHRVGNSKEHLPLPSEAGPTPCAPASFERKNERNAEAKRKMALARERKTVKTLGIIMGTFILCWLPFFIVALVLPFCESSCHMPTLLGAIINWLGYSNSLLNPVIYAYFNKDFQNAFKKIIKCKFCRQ

The assay addresses 5-hydroxytryptamine receptor 1A (Homo sapiens, UniProt P08908).

In the case of `COc1ccccc1OCCNCCCCc1c[nH]c2ccccc12`, the midpoint of the response, the EC50, lay at 44 nM.
Then `c1ccc2c(CCCNCCOc3cccc4[nH]ccc34)c[nH]c2c1`, with 4 nM.

For orientation: EC50 means the concentration needed to bring the measured effect to its halfway point.
